Measurements as given in patent publication US11964973B2 (priority 2019, dated 2024).

Tested on: Human venous whole blood (IFN-γ)
Experiment: Human whole blood IFN-γ assay
Format: cell-based
Settings: read-out: INFg Whole Blood Normalized Agonist EC50, anti-CD3 plus anti-CD28, 24 hours

C[C@H]1CN(c2cc(=O)n(C)c3ccc(C#N)nc23)CC[C@@H]1Oc1cccc(C(C)(C)C)c1
EC50: 19 µM
